Data as given in ChEMBL document CHEMBL5260813, “An overview on the recent developments of 1,2,4-triazine derivatives as anticancer compounds” (Eur J Med Chem, 2017).

Experiments:
[1] = target: T1, Tyrosine-protein kinase SYK (Homo sapiens, UniProt P43405); assay: Inhibition of SYK in human Ramos cells assessed as reduction in anti IgM-induced phosphorylation of BLNK by flow cytometry assay; assay type: cell-based
[2] = target: T1, Tyrosine-protein kinase SYK; assay: Inhibition of human SYK using 5-Fluo-Ahx-GAPDYENLQELNKK-Amid as substrate in presence of ATP by microfluidic mobility shift assay

Cn1cc2c(Nc3nc(N[C@@H]4CCCC[C@@H]4N)nnc3C(N)=O)cccc2n1
IC50 [1]: 14 nM
IC50 [2]: 0.8 nM
